Inhibition data for 60 compounds are collected here from PubChem BioAssay AID651704 (Broad Institute, 2012).

Protein sequences, listed by entry. Tags and fused reporters are not part of them.
UniProt P42568, whole entry: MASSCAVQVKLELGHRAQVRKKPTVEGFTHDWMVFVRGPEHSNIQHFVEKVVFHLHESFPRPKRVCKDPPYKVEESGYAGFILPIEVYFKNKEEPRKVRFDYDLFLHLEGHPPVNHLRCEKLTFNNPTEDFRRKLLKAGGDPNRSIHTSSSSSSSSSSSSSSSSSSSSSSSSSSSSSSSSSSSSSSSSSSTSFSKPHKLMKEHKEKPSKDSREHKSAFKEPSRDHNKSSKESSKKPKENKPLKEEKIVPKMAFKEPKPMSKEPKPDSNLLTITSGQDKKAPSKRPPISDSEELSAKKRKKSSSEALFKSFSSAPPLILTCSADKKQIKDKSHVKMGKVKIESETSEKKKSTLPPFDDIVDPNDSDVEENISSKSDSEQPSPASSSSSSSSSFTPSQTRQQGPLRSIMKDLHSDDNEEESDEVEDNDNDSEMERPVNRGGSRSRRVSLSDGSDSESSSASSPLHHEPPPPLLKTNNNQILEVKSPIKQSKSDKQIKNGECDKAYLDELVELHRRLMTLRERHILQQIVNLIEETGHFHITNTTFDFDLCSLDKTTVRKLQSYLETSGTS

Only a part is listed here, and it is no random draw. Active and inactive are the calls of the source.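 Rule for the calls: active = every replicate reaching a set inhibition limit, whatever the replicate mean (cut at about 25% in these data); inconclusive = mean inhibition reaches that limit but some replicates miss it; inactive = the rest.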

By inhibition is commonly meant the change of the read-out against control, counted positive when it falls.

The experiment has as its target Protein AF-9 (Homo sapiens) (UniProt P42568). The experiment in a line: MLL-AF4/AF9 protein interaction blockers – biochemical, AlphaScreen, biotin-AF4 peptide, FLAG-AF9, single point, primary screen (AID 651704).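 Note: 0% = plate neutral control median and 100% = total signal loss.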 Particulars: biotin-AF4 peptide binding to FLAG-AF9, at 10 µM, stronger effect = higher value. (Alpha assays give light when donor and acceptor beads are brought close together.)
For the compound `CCOC(=O)Nc1ccc([As](=O)(O)O)c(O)c1`, the inhibition was inactive: 0.59%.
As for `CCCCOc1ccc(C(=O)NCC2(N3CCCCC3)CCCCC2)cc1OC`, the inhibition was inactive: 4.96%.
As for `COP(=O)(OC)N1CC1c1ccccc1` (stereo not given), the figure is inactive: 4.13%; as for `CCOC(=O)Nc1cccc([As](=O)(O)O)c1`, inactive: -2.56%.
On to `O=[N+]([O-])c1ccc(Nc2ccc(Oc3ccc([N+](=O)[O-])cc3[N+](=O)[O-])cc2)c([N+](=O)[O-])c1`, for which the inhibition was inactive: -4.49%.
For `CP(=O)(Nc1ccccc1Br)Oc1ccccc1` (stereo not given) the value was inactive: 9.55%; for `COc1ccccc1OP(C)(=O)Nc1ccccc1` (stereo not given), inactive: 0.381%; for `O=P(Nc1ccccn1)(c1cccc2ccccc12)c1cccc2ccccc12`, inactive: -0.289%.
As for `Cc1cc(SC(NC=O)C(Cl)(Cl)Cl)ncn1` (stereo not given), the figure is inactive: 0.494%; as for `CP(=O)(Oc1ccccc1)OC(c1ccccc1)C(F)(F)F` (stereo not given), inactive: 0.121%; as for `COC(=O)C1(C)COP(=O)(N2CCCC2)OC1` (stereo not given), inactive: -2.7%.
With `COP1(=S)c2c(C)nn(CCC#N)c2N=C(c2ccc(F)cc2)N1C` (stereo not given), the inhibition is inactive: 5.04%.
As for `CP(=O)(Nc1ccc(SC(F)(F)F)cc1)Oc1ccc(Cl)cc1` (stereo not given), the figure is inactive: 1.81%; as for `O=C(Nc1ccncc1[N+](=O)[O-])c1ccc([N+](=O)[O-])cc1[N+](=O)[O-]`, inactive: 0.171%.
Consider `CP(=O)(NC(=O)Nc1ccccc1)Oc1ccccc1` (stereo not given), for which the inhibition is inactive: -2.58%.
As for `CCc1ccc(OP(C)(=O)N2CCN(c3ccc([N+](=O)[O-])cc3)CC2)cc1` (stereo not given), the figure is inactive: 2.39%; as for `CCOC(=O)c1ccc(NC(=O)C(C)(CCl)SC)cc1` (stereo not given), inactive: -0.484%.
Regarding `CCOC(=O)c1ccc(NP(C)(=O)Oc2ccc(OC)cc2)cc1` (stereo not given), the inhibition is inactive: -2.07%.
As to `O=[N+]([O-])c1cc([N+](=O)[O-])c(O)c([N+](=O)[O-])c1.c1ccc(Oc2ccncc2)cc1`, the inhibition is inactive: -0.767%.
Regarding `O=C(OC1CN2CCC1CC2)c1cccc([N+](=O)[O-])c1` (stereo not given), the inhibition is inactive: -0.989%.
Take `CP(=O)(Nc1ccccn1)Oc1ccc(Cl)cc1` (stereo not given): the inhibition was inactive: 4.84%.
`Cc1cc(=O)[nH]c(N[N+](=O)[O-])n1`: the inhibition was inactive: -1.06%.
For the compound `CCN(CC)CCCOC(=O)C(O)(c1ccccc1)c1ccccc1`, the inhibition was inactive: -0.444%.
Regarding `Cc1c2c(nc3ccccc13)SC(C(Cl)Cl)C2` (stereo not given), the inhibition is inactive: -3.42%.
For the compound `COc1cc(I)ccc1[As](=O)(O)O`, the inhibition is inactive: 2.11%.
Turning to `COc1ccc2nc(NP(=O)(c3ccccc3)c3ccccc3)sc2c1`, the inhibition was inactive: 0.535%.
Consider `COc1ccc(CN2/C(=N\P(=O)(Oc3ccccc3)Oc3ccccc3)Cc3ccccc3C2C2CC2)cc1` (stereo not given), for which the inhibition is inactive: 0.551%.
Regarding `O=P1(N(CCCl)CCCl)OCCCN1CCCl` (stereo not given), the inhibition was inactive: 3.28%.
As to `O=P1(N(CCCl)CCCl)Nc2ccccc2N1`, the inhibition was inactive: 1.15%.
For `COc1ccccc1-c1ccccn1.O=[N+]([O-])c1cc([N+](=O)[O-])c(O)c([N+](=O)[O-])c1` the value was inactive: -2.23%.
As to `COc1ccc(N/C(=N/P(=O)(N2CCOCC2)N2CCOCC2)N2CCOCC2)cc1`, the inhibition is inactive: 0.894%.
With `O=[N+]([O-])c1cc(Oc2ccc([N+](=O)[O-])cc2C(F)(F)F)cc([N+](=O)[O-])c1`, the inhibition is inactive: 0.229%.
On to `O=[N+]([O-])c1ccc(-c2cc([N+](=O)[O-])c(O)c([N+](=O)[O-])c2)cc1`, for which the inhibition is inactive: 0.264%.
Turning to `COc1cc(C(=O)NCC2(N3CCOCC3)CCCCC2)ccc1OCC(C)C`, the inhibition was inactive: 3.22%.
Turning to `O=[As](O)(c1ccc(O)cc1)c1ccccc1O`, the inhibition is inactive: -6.94%.
`C[As](=O)(O)c1cccc(C(=O)O)c1`: the inhibition is inactive: -10.6%.
Regarding `O=[N+]([O-])c1ccc2c(c1)C=Nc1ccccc1O2`, the inhibition is inactive: 5.3%.
Consider `Cc1ccc2nc3c(c(C)c2c1)CC(C(Cl)Cl)S3` (stereo not given), for which the inhibition was inactive: -2.8%.
For `Cc1cccc(C)c1OP(C)(N)=O` (stereo not given) the value was inactive: -3.06%.
As to `[N-]=[N+]=NC1CCCCC1NC(=O)c1cc([N+](=O)[O-])cc([N+](=O)[O-])c1` (stereo not given), the inhibition was inactive: -0.338%.
For `Cc1ccc(OP(=O)(Nc2ccc([N+](=O)[O-])cn2)Oc2ccc(C)cc2)cc1` the value was inactive: -0.171%.
Regarding `CC(C)(C)c1ccc(OP(C)(=O)Nc2ccc(SC(F)(F)F)cc2)cc1` (stereo not given), the inhibition is inactive: -28.4%.
As to `COC(=O)C1(C)COP(=O)(N2CCCCCC2)OC1` (stereo not given), the inhibition is inactive: -2.41%.
For the compound `Cc1cc(C)cc(OP(C)(N)=O)c1` (stereo not given), the inhibition is inactive: -2.11%.
As for `COc1ccccc1OP(C)(=O)Nc1cc(Cl)ccc1C` (stereo not given), the inhibition was inactive: -2.79%.
For `CC(C)NC(=O)NP(=O)(Oc1ccccc1)Oc1ccccc1` the value was inactive: 1.1%.
For `O=C(OC1CN2CCC1CC2)c1cccc2[nH]cnc12` (stereo not given), the inhibition was inactive: -6%.
Take `O=P(Nc1nccs1)(Oc1ccccc1)Oc1ccccc1`: the inhibition is inactive: -4.99%.
Regarding `CCOP1(=S)c2c(C)nn(CCC#N)c2N=C(c2ccccc2F)N1C` (stereo not given), the inhibition is inactive: 5.5%.
In the case of `O=C(O)c1cccc(Nc2c([N+](=O)[O-])cc([N+](=O)[O-])cc2[N+](=O)[O-])c1`, the inhibition is inactive: 6.71%.
For the compound `Nc1ccccc1[As](=O)(O)c1ccccc1`, the inhibition was inactive: 12.3%.
As for `O=C(O)COc1ccc([As](=O)(O)O)cc1[N+](=O)[O-]`, the figure is inactive: -2.67%.
For `NC(=O)Nc1ccc([As](=O)(O)O)cc1` the value was inactive: 0.219%; for `CN(C(=O)Cc1ccc(Cl)c(Cl)c1)[C@H]1CC[C@@]2(CCCO2)C[C@@H]1N1CCCC1`, inactive: -1.06%.
On to `CN(C)C(=O)c1cc([N+](=O)[O-])cc2c1-c1c(cc([N+](=O)[O-])cc1[N+](=O)[O-])C2=O`, for which the inhibition was inactive: -3.09%.
Consider `CCOP1(=S)c2c(C)nn(CCC#N)c2N=C(c2ccc(F)cc2)N1C` (stereo not given), for which the inhibition was inactive: 0.101%.
Consider `CN(C(=O)Cc1ccccc1)[C@@H]1CC[C@]2(CCCO2)C[C@H]1N1CCCC1`, for which the inhibition was inactive: -2.53%.
Regarding `N#CCCN(C(=O)COC(=O)C(O)(c1ccccc1)c1ccccc1)c1ccc(F)cc1`, the inhibition was inactive: -1.85%.
As to `COc1ccccc1OP(C)(=O)Nc1cccc(Br)c1` (stereo not given), the inhibition was inactive: 1.28%.
As for `CS(=O)(=O)c1ccc(Cl)c(NC(=O)COC(=O)C(O)(c2ccccc2)c2ccccc2)c1`, the inhibition is inactive: 2.11%.
